Experimental data as given in US12331059B2 (priority 2019, dated 2025).

Test system: MV4-11 cells
Details: 48 h culture, half inhibitory concentration on growth of tumor cells

`Cc1ncsc1-c1ccc(CNC(=O)C2CC(O)CN2C(=O)C(NC(=O)CNC(=O)OCCC2OC3OC4(C)CCC5C(C)CCC(C2C)C35OO4)C(C)(C)C)cc1` (stereo not shown) was tested, and the IC50 was 870 nM.
